Test results: ChEMBL document CHEMBL3112461, “Synthesis and characterization of a novel series of agonist compounds as potential radiopharmaceuticals for imaging dopamine D₂/₃ receptors in their high-affinity state” (J Med Chem, 2014)

Sequences of proteins named here, by UniProt entry; tags and fusion partners are left off.
UniProt P14416, whole entry: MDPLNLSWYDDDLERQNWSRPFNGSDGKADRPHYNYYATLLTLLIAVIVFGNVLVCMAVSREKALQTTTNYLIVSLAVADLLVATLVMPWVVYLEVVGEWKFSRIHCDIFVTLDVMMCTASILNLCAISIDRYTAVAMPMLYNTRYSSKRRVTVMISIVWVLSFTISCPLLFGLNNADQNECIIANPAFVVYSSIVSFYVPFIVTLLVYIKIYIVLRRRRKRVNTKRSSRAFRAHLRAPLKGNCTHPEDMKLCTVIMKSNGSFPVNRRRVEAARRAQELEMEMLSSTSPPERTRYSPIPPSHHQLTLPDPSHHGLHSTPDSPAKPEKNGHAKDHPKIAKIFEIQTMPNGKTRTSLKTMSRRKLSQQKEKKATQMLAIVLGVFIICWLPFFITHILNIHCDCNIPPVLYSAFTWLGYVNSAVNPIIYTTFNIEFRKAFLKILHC
UniProt P21918, whole entry: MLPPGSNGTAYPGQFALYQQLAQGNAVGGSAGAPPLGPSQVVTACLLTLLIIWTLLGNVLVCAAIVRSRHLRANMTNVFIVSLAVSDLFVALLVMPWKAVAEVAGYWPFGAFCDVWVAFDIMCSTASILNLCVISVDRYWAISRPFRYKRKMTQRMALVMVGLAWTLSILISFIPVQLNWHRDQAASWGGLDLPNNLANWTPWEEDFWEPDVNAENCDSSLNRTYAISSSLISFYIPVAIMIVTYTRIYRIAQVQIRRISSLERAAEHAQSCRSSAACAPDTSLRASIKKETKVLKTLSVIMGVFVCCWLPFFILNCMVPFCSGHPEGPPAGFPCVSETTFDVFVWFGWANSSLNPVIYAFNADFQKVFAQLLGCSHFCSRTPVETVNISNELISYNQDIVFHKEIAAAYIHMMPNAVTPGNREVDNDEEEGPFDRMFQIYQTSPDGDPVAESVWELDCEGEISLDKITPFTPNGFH

Assays:
D(2) dopamine receptor [1] = molecular target: T1, D(2) dopamine receptor (Homo sapiens, UniProt P14416); assay: Displacement of [3H]spiperone from high-affinity state of human dopamine D2L receptor transfected in HEK293 cells after 2 hrs by scintillation counting analysis; format: cell-based
D(2) dopamine receptor [2] = molecular target: T1, D(2) dopamine receptor; assay: Agonist activity at human dopamine D2L receptor expressed in HEK293 cells assessed as inhibition of forskolin-induced cAMP accumulation after 30 mins by LANCE assay; format: functional, cell-based
D(1B) dopamine receptor = D(1B) dopamine receptor (Homo sapiens, UniProt P21918); assay: Displacement of [3H]SCH23390 from human dopamine D5 receptor transfected in HEK293 cells after 2 hrs by scintillation counting analysis; format: cell-based
D(2) dopamine receptor [3] = molecular target: T1, D(2) dopamine receptor; assay: Displacement of [3H]spiperone from low-affinity state of human dopamine D2S receptor transfected in HEK293 cells after 2 hrs by scintillation counting analysis; format: cell-based
D(2) dopamine receptor [4] = molecular target: T1, D(2) dopamine receptor; assay: Displacement of [3H]spiperone from low-affinity state of human dopamine D2L receptor transfected in HEK293 cells after 2 hrs by scintillation counting analysis; format: cell-based
Homo sapiens = species on record: Homo sapiens; assay: Selectivity ratio of Ki for human dopamine D1-like receptor to Ki for human dopamine D2-like receptor

Ki (D(2) dopamine receptor [1]): 3.79 nM | EC50 (D(2) dopamine receptor [2]): 0.631 nM | Ki (D(1B) dopamine receptor): 3790 nM | Ki (D(2) dopamine receptor [3]): 140 nM | Ki (D(2) dopamine receptor [4]; read-out: Ki): 51.8 nM | Ki (D(2) dopamine receptor [4]; read-out: pKi (converted)): 35.5 nM | Ratio Ki (Homo sapiens): > 100
SMILES: Oc1ccc2c(c1)O[C@@H](CNCc1ccc(I)cc1)CC2
